The text below walks through data of paper PMC8693465.

Protein sequences, listed by entry. Tags and fused reporters are not part of them. Residues count along the entry.
UniProt P32389, 114-160: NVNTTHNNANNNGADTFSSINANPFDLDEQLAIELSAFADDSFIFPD
UniProt P32389, 76-113: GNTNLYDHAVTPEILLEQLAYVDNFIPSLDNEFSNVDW
UniProt P32389, 76-160: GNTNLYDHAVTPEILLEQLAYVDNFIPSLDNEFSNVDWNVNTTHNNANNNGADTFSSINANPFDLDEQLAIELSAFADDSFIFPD

Common to all, as to test: BLI; biotinylated Met4 UBD constructs (20 ug/ml) loaded on streptavidin biosensors, quenched with biocytin; K48 tetra-ubiquitin at 1450, 483, 161, 53, 17, 5.6 and 2.8 nM; 50 mM Tris, 150 mM NaCl, 0.01 mg/ml BSA, 0.02% tween 20, pH 7.5; 30 °C; association 30 s, dissociation 90 s
The target in assay [1] is UIMLx2 probe (two tandem repeats of Met4 UIML 76-113) (yeast) (UniProt P32389).
The target of assay [2] is Met4 ubiquitin interacting motif (UIM), residues 114-160 (yeast) (UniProt P32389).
For assay [3], the target named is UIMLx4 (four tandem repeats of Met4 UIML 76-113) (yeast) (UniProt P32389).
For assay [4], the target named is Met4 ubiquitin interacting motif-like domain (UIML), residues 76-113 (yeast) (UniProt P32389).
The target of assay [5] is Met4 tandem ubiquitin binding domain (tUBD), residues 76-160 (yeast) (UniProt P32389).
Assay [6] has as its target UIMLx3 (three tandem repeats of Met4 UIML 76-113) (yeast) (UniProt P32389).

For the substance “K48-linked tetra-ubiquitin (from UniProt P0CG48 1-76)”, the Kd stood at 96.8 nM in assay [1]; 1600 nM in assay [2]; 104 nM in assay [3]; 349 nM in assay [4]; 356 nM in assay [5]; 48.9 nM in assay [6]. For the same substance, the kon stood at 536000 M⁻¹ s⁻¹ in assay [1]; 276000 M⁻¹ s⁻¹ in assay [2]; 376000 M⁻¹ s⁻¹ in assay [3]; 462000 M⁻¹ s⁻¹ in assay [4]; 750000 M⁻¹ s⁻¹ in assay [6].

A word on the Kd: it is a measure of binding affinity in units of concentration. A high value points to lower affinity. The kon is a measure of how fast the partners come together. Low readings indicate slow association, high ones fast association.
